Reference: ChEMBL document CHEMBL1142045, “Carbonic anhydrase inhibitors. Interaction of isozymes I, II, IV, V, and IX with organic phosphates and phosphonates” (Bioorg Med Chem Lett, 2005)

Molecular target: Carbonic anhydrase 2 (Homo sapiens, UniProt P00918)
Experiment: Binding affinity towards human cytosolic carbonic anhydrase II

`CP(=O)(O)O` was tested, and the Ki was 98 nM.
